Reference: patent US20250230129A1, “POLYAMIDE COMPOUNDS, METHOD FOR PREPARING SAME, AND MEDICAL USE THEREOF” (priority 2022, published 2025)
Where two headings read alike, the source gives them in different places.

Chains of the proteins cited; added tags and fusions are not shown.
UniProt P35372, whole entry: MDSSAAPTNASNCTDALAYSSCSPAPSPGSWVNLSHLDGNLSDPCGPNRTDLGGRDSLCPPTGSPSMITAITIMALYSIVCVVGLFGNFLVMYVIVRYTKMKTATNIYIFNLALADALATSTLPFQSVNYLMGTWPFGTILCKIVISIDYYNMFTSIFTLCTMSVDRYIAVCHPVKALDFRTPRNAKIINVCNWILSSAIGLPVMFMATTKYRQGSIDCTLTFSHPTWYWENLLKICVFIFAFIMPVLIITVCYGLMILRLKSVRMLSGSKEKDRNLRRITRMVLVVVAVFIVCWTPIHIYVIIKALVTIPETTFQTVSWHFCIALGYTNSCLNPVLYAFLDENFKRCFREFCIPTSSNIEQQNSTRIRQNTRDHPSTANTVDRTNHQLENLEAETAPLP
UniProt Q12809, whole entry: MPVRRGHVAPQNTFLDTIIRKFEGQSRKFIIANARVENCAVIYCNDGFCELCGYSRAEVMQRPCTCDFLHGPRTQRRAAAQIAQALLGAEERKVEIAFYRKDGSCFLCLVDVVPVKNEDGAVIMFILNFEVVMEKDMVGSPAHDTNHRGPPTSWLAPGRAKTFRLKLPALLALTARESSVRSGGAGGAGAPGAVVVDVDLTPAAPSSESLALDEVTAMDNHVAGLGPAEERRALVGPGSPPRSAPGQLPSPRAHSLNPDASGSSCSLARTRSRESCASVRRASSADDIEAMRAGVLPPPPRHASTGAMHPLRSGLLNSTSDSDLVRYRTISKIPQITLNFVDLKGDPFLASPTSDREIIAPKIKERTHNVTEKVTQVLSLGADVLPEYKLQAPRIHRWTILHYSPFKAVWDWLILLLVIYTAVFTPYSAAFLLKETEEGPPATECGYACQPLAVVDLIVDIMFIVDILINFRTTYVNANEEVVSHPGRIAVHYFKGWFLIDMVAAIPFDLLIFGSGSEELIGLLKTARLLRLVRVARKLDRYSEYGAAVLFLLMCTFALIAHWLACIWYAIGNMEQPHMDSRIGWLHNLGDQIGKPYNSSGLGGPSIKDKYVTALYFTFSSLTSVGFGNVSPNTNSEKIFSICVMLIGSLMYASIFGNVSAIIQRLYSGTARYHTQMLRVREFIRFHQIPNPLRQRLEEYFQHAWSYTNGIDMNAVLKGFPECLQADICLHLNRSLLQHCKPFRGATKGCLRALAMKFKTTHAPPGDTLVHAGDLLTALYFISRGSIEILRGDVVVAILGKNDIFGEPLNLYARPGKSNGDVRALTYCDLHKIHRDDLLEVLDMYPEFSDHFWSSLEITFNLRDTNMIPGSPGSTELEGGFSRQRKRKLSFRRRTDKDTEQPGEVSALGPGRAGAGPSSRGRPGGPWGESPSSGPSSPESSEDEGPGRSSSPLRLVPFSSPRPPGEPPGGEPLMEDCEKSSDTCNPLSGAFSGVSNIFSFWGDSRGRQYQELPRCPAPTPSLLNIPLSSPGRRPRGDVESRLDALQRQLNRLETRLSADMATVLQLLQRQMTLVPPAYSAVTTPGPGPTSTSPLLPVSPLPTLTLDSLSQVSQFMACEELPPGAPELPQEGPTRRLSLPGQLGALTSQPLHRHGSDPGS

What was measured:
[1] = molecular target: κ receptor (Homo sapiens (Human), UniProt P41145); assay: Competitive Kappa receptor binding assay (3H-U69593); details: read-out: κ receptor Ki, CHO-K1-Kappa membranes, 3H-U69593 2 nM
[2] = molecular target: μ receptor (Homo sapiens (Human), UniProt P35372); assay: μ receptor affinity assay (3H-DAMGO); assay type: binding; details: read-out: μ receptor Ki, CHO-K1-μ membranes, 3H-DAMGO 2 nM
[3] = molecular target: δ receptor (Homo sapiens (Human), UniProt P41143); assay: Competitive delta receptor binding assay (3H-DADLE); details: read-out: δ receptor Ki, CHO-K1-delta membranes, 3H-DADLE 4 nM
[4] = molecular target: κ-opioid receptor (Kappa) (Homo sapiens (Human), UniProt P41145); assay: In vitro functional assay, HTRF cAMP-Gi in CHO-K1-OPRK1 cells; assay type: cell-based
[5] = system: ICR mice; assay: Acetic acid writhing test in mice; assay type: in vivo; details: single intravenous injection, male ICR mice
[6] = system: ICR mice; assay: Autonomous activity test in mice; details: single intravenous injection, male ICR mice, 30 min recording
[7] = system: ICR mice; assay: Sedation safety window
[8] = PK and blood-brain barrier permeability in mice; details: male ICR mice, intravenous 1 mg/kg
[9] = molecular target: hERG (Homo sapiens (Human), UniProt Q12809); assay: hERG potassium ion channel manual patch-clamp; details: 10 μM, HEK293 cells stably expressing hERG; tested form: formate
[10] = read-out: In vitro agonistic effects on k-opioid receptors EC50, 1 μM Forskolin, tested form: formate

| Structure (SMILES) | Ki ([1]; tested form: formate) [nM] | Ki ([2]; tested form: formate) [nM] | Ki ([3]; tested form: formate) [nM] | EC50 [4, 10] [nM] | further results |
| --- | --- | --- | --- | --- | --- |
| CN=S1(=O)CCN(C(=O)[C@@H](CCCCN)NC(=O)[C@@H](CC(C)C)NC(=O)[C@@H](Cc2ccccc2)NC(=O)[C@H](N)Cc2ccccc2)CC1 | 0.91 | > 1000 | > 1000 | 0.3 | – |
| CC(C)C[C@@H](NC(=O)[C@@H](Cc1ccccc1)NC(=O)[C@H](N)Cc1ccccc1)C(=O)N[C@H](CCCCN)C(=O)N1CCC2(CC1)CCN(C)c1ncccc12 | 0.6 | > 1000 | > 1000 | < 0.1 | – |
| CC(C)C[C@@H](NC(=O)[C@@H](Cc1ccccc1)NC(=O)[C@H](O)Cc1ccccc1)C(=O)N[C@H](CCCCN)C(=O)N1CCS(=N)(=O)CC1 | 11.2 | > 1000 | > 1000 | – | – |
| CC(C)CC(NC(=O)C(Cc1ccccc1)NC(=O)N(C)C(CN)c1ccccc1)C(=O)NC(CCCCN)C(=O)N1CCC(N)(C(=O)O)CC1 (single isomer, unassigned) [2-100] | 32.5 | > 1000 | > 1000 | – | – |
| COC(=O)N(CCCN)C1CCN(C(=O)[C@@H](C)NC(=O)[C@@H](CC(C)C)NC(=O)[C@@H](Cc2ccccc2)NC(=O)N(C)C(CN)c2ccccc2)CC1 (stereo partly drawn) | 2 | > 1000 | > 1000 | 6.13 | – |
| CC(C)C[C@@H](NC(=O)[C@@H](Cc1ccccc1)NC(=O)N(C)C(CN)c1ccccc1)C(=O)N[C@H](CCCCN)C(=O)N1CCC2(CC1)CC(N)(C(=O)O)C2 (stereo partly drawn) | 1.61 | > 1000 | > 1000 | – | – |
| COC(=O)N(CCCN)C1CCN(C(=O)[C@@H](C)NC(=O)[C@@H](CC(C)C)NC(=O)[C@@H](Cc2ccccc2)NC(=O)[C@H](N)Cc2ccccc2)CC1 | 0.48 | > 1000 | > 1000 | 0.59 | Acetic acid writhing in mice ED50 ([5]; tested form: formate): 1.61 mg/kg; Autonomous activity in mice ED50 ([6]; tested form: formate): 5.52 mg/kg; Safety window ([7]; sedation side effect ED50 (autonomic activity test)/efficacy ED50 (acetic acid writhing test), tested form: formate): 3.43 |
| CC(C)CC(NC(=O)C(Cc1ccccc1)NC(=O)N(C)C(CN)c1ccccc1)C(=O)NC(CCCCN)C(=O)N1CCC(N)(C(=O)O)CC1 (single isomer, unassigned) [2-0] | 1.15 | > 1000 | > 1000 | – | – |
| CC(C)C[C@@H](NC(=O)[C@@H](Cc1ccccc1)NC(=O)N(CCN)CC1CCCC1)C(=O)N[C@H](CCCCN)C(=O)N1CCC(N)(C(=O)O)CC1 | 0.93 | > 1000 | > 1000 | 3.06 | – |
| COC(=O)NC1CCN(C(=O)[C@@H](CCCCN)NC(=O)[C@@H](CC(C)C)NC(=O)[C@@H](Cc2ccccc2)NC(=O)N(CCN)Cc2ccccc2)CC1 | – | – | – | – | Ki [1]: 0.26 nM; Ki [2]: > 1000 nM; Ki [3]: > 1000 nM; EC50 ([4]; read-out: In vitro agonistic effects on k-opioid receptors EC50, 1 μM Forskolin): 0.079 nM; Acetic acid writhing in mice ED50 [5]: 0.27 mg/kg; Autonomous activity in mice ED50 [6]: 1.37 mg/kg; AUC(0-∞) [8]: 2.50355 µg·h/mL; Clearance [8]: 0.40 L/h/kg; Vd [8]: 0.51 L/kg; t½ [8]: 52.2 min; B/P (brain-to-blood ratio) ([8]; blood and brain 5 min after administration): 0.010; Cmax ([8]; plasma): 4.72952 µg/mL; Safety window ([7]; mouse, in vivo): 5.13 |
| CC(C)C[C@@H](NC(=O)[C@@H](Cc1ccccc1)NC(=O)[C@H](N)Cc1ccccc1)C(=O)N[C@H](CCCCN)C(=O)N1CCC2(CC1)CNC(=O)c1ncccc12 | 0.34 | > 1000 | > 1000 | 0.3 | % inhibition rate of hERG current [9]: 4.15% ± 0.07% |
| COC(=O)NC1CCN(C(=O)[C@@H](CCCCN)NC(=O)[C@@H](CC(C)C)NC(=O)[C@@H](Cc2ccccc2)NC(=O)NC(CN)c2ccccc2)CC1 (stereo partly drawn) | 3.49 | > 1000 | > 1000 | 1.23 | – |
